The values that follow come from ChEMBL document CHEMBL4368901 (J Med Chem, 2019).

Structures are written as SMILES.

Assay [1] deals with A549. In words: Antiproliferative activity against human A549 cells after 5 days by EZMTT reagent-based assay. Type of assay: functional, cell-based. Conditions: A549, 120 h.
Assay [2] deals with CAKI-1. In words: Antiproliferative activity against human Caki1 cells after 5 days by EZMTT reagent-based assay. In kind it is functional, cell-based. The note with it: CAKI-1, 120 h.

What is called IC50 is the concentration that inhibits the measured activity by half. Lower therefore signals inhibition by little substance.

Consider `O=C(Cc1cccc(OC(F)(F)F)c1)Nc1ccc(CCCCc2nnc(NC(=O)Cc3ccccn3)s2)nn1`, for which the IC50 in assay [1] and in assay [2] was 40 nM in each case.
